# Test results: US20030153056A1, “Glycosyltransferase proteins” (priority 2000, published 2003)
# Target: T1, Brainiac β1-3-N-acetylglucosaminyltransferase (Drosophila melanogaster, UniProt Q24157)
# T1 construct: The full coding region of Brainiac was prepared by PCR using genomic DNA; made in house; host or cells: High Five insect cells (baculovirus vector pVL1393); microsomal fractions
# T1 sequence (Q24157 1-325): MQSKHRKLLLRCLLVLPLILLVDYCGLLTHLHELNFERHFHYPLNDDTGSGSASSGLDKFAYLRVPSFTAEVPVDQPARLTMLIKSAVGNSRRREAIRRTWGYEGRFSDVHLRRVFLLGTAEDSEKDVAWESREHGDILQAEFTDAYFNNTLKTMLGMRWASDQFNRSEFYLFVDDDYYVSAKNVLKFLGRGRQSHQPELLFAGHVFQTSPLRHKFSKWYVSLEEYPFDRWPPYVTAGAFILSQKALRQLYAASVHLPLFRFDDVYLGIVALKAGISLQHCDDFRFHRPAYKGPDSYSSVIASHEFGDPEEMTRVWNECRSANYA
# Experiment: Substrate specificities of Brainiac β1-3-N-acetylglucosaminyltransferase (acceptor panel, microsomal preparations)
# Type: biochemical
# Settings: microsomes of pVL-Brainiac infected High Five cells, background of irrelevant construct subtracted, donor UDP-GlcNAc
smiles,measurement,setting,value
OC[C@H]1O[C@@H](O[C@@H]2[C@@H](CO)O[C@](O)(CO)[C@H]2O)[C@H](O)[C@@H](O)[C@H]1O [Galβ1-4Fru],Brainiac activity with substrate,substrate 2 mM,0.05 nmol/h/mg
same,Brainiac activity with substrate,substrate 20 mM,0.18 nmol/h/mg
